T1: human GIPR (glucose-dependent insulinotropic polypeptide receptor) (human, UniProt P48546 22-466)
T1 sequence (looked up): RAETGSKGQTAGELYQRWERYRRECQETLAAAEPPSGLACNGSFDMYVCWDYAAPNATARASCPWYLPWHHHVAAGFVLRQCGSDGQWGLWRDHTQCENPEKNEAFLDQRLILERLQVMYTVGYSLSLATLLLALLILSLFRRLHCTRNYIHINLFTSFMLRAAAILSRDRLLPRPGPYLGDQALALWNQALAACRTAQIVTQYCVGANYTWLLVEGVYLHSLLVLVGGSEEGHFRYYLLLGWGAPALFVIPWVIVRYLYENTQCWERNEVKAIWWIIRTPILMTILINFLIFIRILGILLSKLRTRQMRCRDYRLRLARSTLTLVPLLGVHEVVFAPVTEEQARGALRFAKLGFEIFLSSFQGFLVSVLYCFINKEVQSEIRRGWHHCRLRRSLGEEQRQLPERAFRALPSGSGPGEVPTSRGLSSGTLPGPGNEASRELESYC

Amino acid sequences for entries named in this document (tags omitted). A change or cut given only in a name is not applied to a line headed by its entry.
UniProt P43220: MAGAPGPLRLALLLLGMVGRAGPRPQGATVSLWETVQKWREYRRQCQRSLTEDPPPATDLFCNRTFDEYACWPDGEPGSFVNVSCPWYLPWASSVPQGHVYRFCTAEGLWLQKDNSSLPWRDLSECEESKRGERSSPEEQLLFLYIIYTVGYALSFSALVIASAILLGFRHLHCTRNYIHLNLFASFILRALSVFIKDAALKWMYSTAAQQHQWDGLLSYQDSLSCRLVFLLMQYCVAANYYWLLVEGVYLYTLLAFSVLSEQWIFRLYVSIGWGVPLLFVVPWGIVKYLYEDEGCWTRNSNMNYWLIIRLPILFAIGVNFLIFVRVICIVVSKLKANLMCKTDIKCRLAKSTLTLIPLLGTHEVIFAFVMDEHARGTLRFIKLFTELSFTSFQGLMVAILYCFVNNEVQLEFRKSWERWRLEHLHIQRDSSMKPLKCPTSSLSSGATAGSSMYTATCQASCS

T2: human GLP-2R (glucagon-like peptide-2 receptor) (human, UniProt O95838 1-553)
T2 sequence (looked up): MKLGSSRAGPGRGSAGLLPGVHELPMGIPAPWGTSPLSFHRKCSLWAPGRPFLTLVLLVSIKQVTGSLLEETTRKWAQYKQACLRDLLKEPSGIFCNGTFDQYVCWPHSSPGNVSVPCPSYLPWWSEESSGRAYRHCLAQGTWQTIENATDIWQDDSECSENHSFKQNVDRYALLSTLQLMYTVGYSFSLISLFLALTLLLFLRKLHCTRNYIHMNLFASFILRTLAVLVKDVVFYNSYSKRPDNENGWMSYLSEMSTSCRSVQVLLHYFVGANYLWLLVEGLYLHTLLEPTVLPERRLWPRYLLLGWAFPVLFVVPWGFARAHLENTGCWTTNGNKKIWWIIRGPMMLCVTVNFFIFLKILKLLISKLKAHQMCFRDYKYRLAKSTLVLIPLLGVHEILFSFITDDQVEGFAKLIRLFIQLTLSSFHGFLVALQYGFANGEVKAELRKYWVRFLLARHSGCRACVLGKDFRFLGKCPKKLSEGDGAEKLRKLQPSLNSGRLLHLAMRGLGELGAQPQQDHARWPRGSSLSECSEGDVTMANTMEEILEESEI

T3: Human N-terminally SNAP-tagged GIPR (human, UniProt P48546 22-466, SNAP tag labeled with Tag-Lite SNAP-Lumi4-Tb)
T3 sequence (looked up): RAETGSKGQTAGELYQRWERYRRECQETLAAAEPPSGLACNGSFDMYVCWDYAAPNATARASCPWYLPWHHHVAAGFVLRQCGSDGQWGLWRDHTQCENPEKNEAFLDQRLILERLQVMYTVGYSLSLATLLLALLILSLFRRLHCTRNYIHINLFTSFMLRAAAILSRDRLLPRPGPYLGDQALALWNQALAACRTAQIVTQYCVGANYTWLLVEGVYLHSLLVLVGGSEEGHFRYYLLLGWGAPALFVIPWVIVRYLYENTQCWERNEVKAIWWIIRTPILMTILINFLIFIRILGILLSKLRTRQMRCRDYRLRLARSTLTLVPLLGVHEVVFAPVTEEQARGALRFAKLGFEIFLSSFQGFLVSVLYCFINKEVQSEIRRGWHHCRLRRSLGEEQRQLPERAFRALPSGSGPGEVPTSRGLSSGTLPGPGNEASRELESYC

T4: human SNAP-tagged GLP-2R (human, UniProt O95838 1-553, SNAP tag labeled with Tag-Lite SNAP-Lumi4-Tb)
T4 sequence (looked up): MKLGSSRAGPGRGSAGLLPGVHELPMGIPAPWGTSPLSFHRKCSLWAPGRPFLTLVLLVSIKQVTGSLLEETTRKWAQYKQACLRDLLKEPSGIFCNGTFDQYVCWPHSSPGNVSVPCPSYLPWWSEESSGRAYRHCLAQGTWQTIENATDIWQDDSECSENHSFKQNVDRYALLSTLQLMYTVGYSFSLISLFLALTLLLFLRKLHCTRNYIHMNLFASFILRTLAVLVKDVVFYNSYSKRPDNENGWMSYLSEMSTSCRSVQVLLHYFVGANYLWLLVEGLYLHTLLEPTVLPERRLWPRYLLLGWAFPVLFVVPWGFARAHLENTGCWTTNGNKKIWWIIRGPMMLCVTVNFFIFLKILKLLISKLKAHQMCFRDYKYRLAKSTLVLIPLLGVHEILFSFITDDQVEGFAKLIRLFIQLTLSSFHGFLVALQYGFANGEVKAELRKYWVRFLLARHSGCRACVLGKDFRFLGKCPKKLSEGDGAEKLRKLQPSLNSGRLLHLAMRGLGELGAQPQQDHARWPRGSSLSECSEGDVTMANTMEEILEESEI


How the values were obtained:
Test in all cases: cell-based or functional assay
[1] = biological target: T1, human GIPR (glucose-dependent …)
[2] = biological target: T2, human GLP-2R (glucagon-like peptide-2 …)
[3] = biological target: human GLP-1R (glucagon-like peptide-1 receptor) (human, UniProt P43220 24-463)
[4] = biological target: T3, Human N-terminally SNAP-tagged GIPR
[5] = biological target: human SNAP-tagged GLP-1R (human, UniProt P43220 24-463, SNAP tag labeled with Tag-Lite SNAP-Lumi4-Tb)
[6] = biological target: T4, human SNAP-tagged GLP-2R

EC50 (nM) GIPR [1] [nM] | pEC50 GIPR [1] | EC50 (nM) GLP-2R [2] [nM] | EC50 (nM) GLP-1R [3] [nM] | logEC50 GLP-1R [3] | Relative hGIPR internalization (%) [4] [%] | Relative hGLP-1R internalization (%) [5] [%] | Relative hGLP-2R internalization (%) [6] [%] | logEC50 GLP-2R [2] | Binder
0.056 | 10.3 | 1.4 | 0.5 | 9.3 | 57 | 8.6 | 46.8 |  | HADGTFISDYSTILDKLAARDFINWLIQTKGKKOH (K16 acylated, K-(2xAEEA-γGlu-C18-diacid); C-terminus -OH) [Compound 30]
0.141 | 9.9 | 66.1 | 3.6 | 8.4 | 43 | 7.7 | 13.2 | 7.2 | HADGTFISDYSTILDNLAARDFINWLIQTKGKKOH (K33 (C-terminal residue) acylated, K-(2xAEEA-γGlu-C18-diacid); C-terminus -OH) [Compound 33]

Reference: patent US20250304644A1, “PEPTIDES TRIPLE AGONISTS OF GIP, GLP-1 AND GLP-2” (BAINAN BIOTECH APS, priority 2021, published 2025)
